Tests used:
Aβ oligomers in AD brain = experiment: Brain tissue staining, co-localization with A11 oligomer-specific antibody
Aβ oligomers = Aβ oligomers (Homo sapiens, UniProt P05067); experiment: Saturation binding assay (fluorescence, Scatchard plot) with Aβ oligomers; details: saturation binding fit of FIG. 4
[1] = tested on: Aβ oligomers/plaques in APP/PS1 transgenic mouse brain
[2] = target: Aβ1-40 on-fibril pathway oligomers (Homo sapiens, UniProt P05067); experiment: Time-dependent Aβ fibril formation monitored by dye fluorescence; type: binding; details: dye 5 μM, Aβ 20 μM, 37° C.
[3] = target: monomers, oligomers and fibrils of Aβ (synthetic Aβ1-40) (Homo sapiens, UniProt P05067); experiment: Fluorescence response to pre-formed Aβ monomers, oligomers and fibrils; type: binding; details: dye 5 μM, Aβ 20 μM
[4] = tested on: APP K670N/M671L/PS1 M146L (APP/PS1) Tg mice; experiment: Chronic I.P. treatment of APP/PS1 Tg mice with sensorimotor and radial arm maze testing; type: in vivo, mouse

Protein sequences, listed by entry. Tags and fused reporters are not part of them. Residues count along the entry.
UniProt P05067, 672-711 limits assumed: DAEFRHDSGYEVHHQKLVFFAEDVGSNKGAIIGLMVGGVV

CCOc1cccc(/C=C/c2cc(C)c3n2[B-](F)(F)[N+]2=C(CCC(=O)OCC(Cl)(Cl)Cl)C=CC2=C3)c1O
overlap of staining with areas labeled by A11 oligomer-specific antibody (Aβ oligomers in AD brain): significant overlap with areas labeled by the A11 oligomer-specific antibody
Bmax, best-fit value (statistics of FIG. 4) (Aβ oligomers): 7.886
fluorescent labeling of plaques in brain after I.P. injection ([1]; 18 month old APP/PS1 mice, 0.28 mg/kg I.P., brains removed 24 hr after injection): led to fluorescent labeling of plaques
blood-brain barrier penetration ([1]; APP/PS1 mice, I.P., 0.28 mg/kg): successfully penetrated the BBB
toxicity in vivo ([1]; APP/PS1 mice, I.P., 0.28 mg/kg): without toxicity
fluorescence over the time course of Aβ fibril formation [2]: reached maximum fluorescence intensity at about day-1 incubation, followed by a decrease in signal
fluorescence response to Aβ monomers, oligomers and fibrils [3]: highest fluorescence enhancement was observed upon incubation with Aβ oligomers
locomotor activity versus vehicle-treated Tg mice ([4]; 0.03 mg/kg I.P. twice per week for 2 months): No differences in locomotor activity
errors on radial arm maze versus vehicle-treated Tg mice ([4]; 0.03 mg/kg I.P. twice per week for 2 months, tested at age 6 months, p<0.001): clear cognitive benefit with fewer errors on the radial arm maze
presence of compound in mouse brain ([4]; after one-month I.P. treatment): presence of BDP-1 in mouse brain

From patent publication US20180036433A1, “COMPOUNDS FOR THE DIAGNOSIS OR TREATMENT OF DISORDERS ASSOCIATED WITH PROTEIN OR PEPTIDE OLIGOMERS” (Agency for Science, Technology and Research, priority 2014, published 2018)
